# Measurements taken from patent publication US20260382772A1, “KETO-AMIDE-BASED FIBROBLAST ACTIVATION PROTEIN-TARGETED LIGAND LINKED TO AN IMAGING OR THERAPEUTIC AGENT, COMPOSITIONS, AND METHODS OF USE” (published 2026).
# Tested on: 4T1 tumor bearing mice
# Experiment: Biodistribution of ^177Lu-FAP8-PEG3-IP-DOTA in 4T1 tumor bearing mice
# From the text: Balb/c mice were inoculated on their shoulders with 1×10^5 cells of 4T1 cells, whereas nu/nu mice were inoculated on their shoulders with 5×10^6 cells of HT29 (a human colorectal adenocarcinoma cell line), KB (tumor cell line HeLa), MDA-MB-231 (a human breast cancer cell line), or HEK-FAP cells.
# For the first study, two different tumor-bearing mice (4T1 and HEK-hFAP) were intravenously injected with [^111In] In-FAP8-PEG3-IP-DOTA (In-Conjugate 24′) (0.74 MBq/mouse, 1-10 nmol/mouse) or [^177Lu] Lu-FAP8-PEG3-IP-DOTA (Lu-Conjugate 24′) (7.4 MBq/mouse, 0.3 nmol-5 nmol/mouse).
# At indicated time points (1 hour, 4 hours, 24 hours, 72 hours, 120 hours, and 168 hours post-injection), mice were assessed and/or euthanized by CO2 asphyxiation and organs of interest were harvested, excess blood was rinsed, dried, weighed, and then analyzed by gamma counter, and the results were decay corrected and presented as the percentage of the injected dose per gram of tissue (% ID/g)±standard deviation (SD).
# Dose escalation analyses of [^177Lu] Lu-FAP8-PEG3-IP-DOTA (Lu-Conjugate 24′) in 4T1 tumor-bearing mice was performed (n=3) with 0.3 nmol/mouse (FIG. 45A) or 1.0 nmol/mouse (FIG. 45B) of Lu-Conjugate 24′ provided with constant radioactivity (0.74 MBq/mouse) and measured at different times (1 hour, 4 hours, 24 hours, 72 hours, 120 hours, and 168 hours post-injection).
smiles,measurement,setting,value
COc1ccc(CNC(=O)C(=O)[C@@H]2CC(F)(F)CN2C(=O)CNC(=O)c2ccnc3ccc(OCC(=O)NCCOCCOCCOCCNC(=O)[C@H](CCCCNC(=O)CCCc4ccc(I)cc4)NC(=O)CN4CCN(CC(=O)O)CCN(CC(=O)O)CCN(CC(=O)O)CC4)cc23)cc1OC.[Lu+3],Bone marrow uptake,"1.0 nmol/mouse, 72 h",0.13 ± 0.22 % ID/g
same,Heart uptake,"1.0 nmol/mouse, 72 h",1.26 ± 0.58 % ID/g
same,Intestine uptake,"1.0 nmol/mouse, 72 h",0.79 ± 0.19 % ID/g
same,Kidneys uptake,"1.0 nmol/mouse, 72 h",1.19 ± 0.02 % ID/g
same,Liver uptake,"1.0 nmol/mouse, 72 h",4.90 ± 1.61 % ID/g
same,Lungs uptake,"1.0 nmol/mouse, 72 h",0.99 ± 0.50 % ID/g
same,Spleen uptake,"1.0 nmol/mouse, 72 h",1.98 ± 0.19 % ID/g
same,Stomach uptake,"1.0 nmol/mouse, 72 h",0.86 ± 0.35 % ID/g
same,Tumor uptake,"1.0 nmol/mouse, 72 h",6.99 ± 1.70 % ID/g
same,Tumor/Blood,"1.0 nmol/mouse, 72 h",4.74 ± 1.07
same,Tumor/Bone marrow,"1.0 nmol/mouse, 72 h",16.96 ± 0.1
same,Tumor/Kidneys,"1.0 nmol/mouse, 72 h",5.88 ± 1.22
same,Blood uptake,"1.0 nmol/mouse, 120 h",0.88 ± 0.13 % ID/g
same,Bone marrow uptake,"1.0 nmol/mouse, 120 h",1.02 ± 0.67 % ID/g
same,Heart uptake,"1.0 nmol/mouse, 120 h",0.56 ± 0.18 % ID/g
same,Intestine uptake,"1.0 nmol/mouse, 120 h",0.42 ± 0.18 % ID/g
same,Kidneys uptake,"1.0 nmol/mouse, 120 h",1.36 ± 0.67 % ID/g
same,Liver uptake,"1.0 nmol/mouse, 120 h",6.36 ± 1.2 % ID/g
same,Lungs uptake,"1.0 nmol/mouse, 120 h",1.29 ± 0.54 % ID/g
same,Spleen uptake,"1.0 nmol/mouse, 120 h",2.97 ± 0.59 % ID/g
same,Stomach uptake,"1.0 nmol/mouse, 120 h",0.40 ± 0.12 % ID/g
same,Tumor uptake,"1.0 nmol/mouse, 120 h",4.68 ± 0.85 % ID/g
same,Tumor/Blood,"1.0 nmol/mouse, 120 h",5.29 ± 0.27
same,Tumor/Bone marrow,"1.0 nmol/mouse, 120 h",5.80 ± 2.27
same,Tumor/Kidneys,"1.0 nmol/mouse, 120 h",3.93 ± 1.23
same,Blood uptake,"1.0 nmol/mouse, 168 h",0.5 ± 0.1 % ID/g
same,Bone marrow uptake,"1.0 nmol/mouse, 168 h",0.33 ± 0.30 % ID/g
same,Heart uptake,"1.0 nmol/mouse, 168 h",1.16 ± 0.15 % ID/g
same,Intestine uptake,"1.0 nmol/mouse, 168 h",0.46 ± 0.15 % ID/g
same,Kidneys uptake,"1.0 nmol/mouse, 168 h",1.56 ± 0.73 % ID/g
same,Liver uptake,"1.0 nmol/mouse, 168 h",2.43 ± 0.40 % ID/g
same,Lungs uptake,"1.0 nmol/mouse, 168 h",0.7 ± 0.51 % ID/g
same,Spleen uptake,"1.0 nmol/mouse, 168 h",1.9 ± 0.45 % ID/g
same,Stomach uptake,"1.0 nmol/mouse, 168 h",0.33 ± 0.05 % ID/g
same,Tumor uptake,"1.0 nmol/mouse, 168 h",5 ± 1.57 % ID/g
same,Tumor/Blood,"1.0 nmol/mouse, 168 h",11.22 ± 4.12
same,Tumor/Bone marrow,"1.0 nmol/mouse, 168 h",11.38 ± 2.95
same,Tumor/Kidneys,"1.0 nmol/mouse, 168 h",3.60 ± 1.29
same,Blood uptake,"5.0 nmol/mouse, 1 h",28.96 ± 12.08 % ID/g
same,Bone marrow uptake,"5.0 nmol/mouse, 1 h",1.15 ± 0.38 % ID/g
same,Heart uptake,"5.0 nmol/mouse, 1 h",2.46 ± 1.42 % ID/g
same,Intestine uptake,"5.0 nmol/mouse, 1 h",1.38 ± 0.30 % ID/g
same,Kidneys uptake,"5.0 nmol/mouse, 1 h",4.83 ± 2.4 % ID/g
same,Liver uptake,"5.0 nmol/mouse, 1 h",5.32 ± 0.90 % ID/g
same,Lungs uptake,"5.0 nmol/mouse, 1 h",3.90 ± 0.62 % ID/g
same,Spleen uptake,"5.0 nmol/mouse, 1 h",2.27 ± 1.76 % ID/g
same,Stomach uptake,"5.0 nmol/mouse, 1 h",1.35 ± 0.32 % ID/g
same,Tumor uptake,"5.0 nmol/mouse, 1 h",9.6 ± 4.95 % ID/g
same,Tumor/Blood,"5.0 nmol/mouse, 1 h",0.33 ± 0.08
same,Tumor/Bone marrow,"5.0 nmol/mouse, 1 h",8.54 ± 318
same,Tumor/Kidneys,"5.0 nmol/mouse, 1 h",2.09 ± 0.92
same,Blood uptake,"5.0 nmol/mouse, 4 h",4.65 ± 1.32 % ID/g
same,Bone marrow uptake,"5.0 nmol/mouse, 4 h",1.50 ± 0.717 % ID/g
same,Heart uptake,"5.0 nmol/mouse, 4 h",1.79 ± 0.79 % ID/g
same,Intestine uptake,"5.0 nmol/mouse, 4 h",1.67 ± 0.42 % ID/g
same,Kidneys uptake,"5.0 nmol/mouse, 4 h",4.94 ± 2.88 % ID/g
same,Liver uptake,"5.0 nmol/mouse, 4 h",3.09 ± 0.66 % ID/g
same,Lungs uptake,"5.0 nmol/mouse, 4 h",2.66 ± 0.71 % ID/g
same,Spleen uptake,"5.0 nmol/mouse, 4 h",1.37 ± 1.15 % ID/g
same,Stomach uptake,"5.0 nmol/mouse, 4 h",1.97 ± 0.31 % ID/g
same,Tumor uptake,"5.0 nmol/mouse, 4 h",10.97 ± 1.43 % ID/g
same,Tumor/Blood,"5.0 nmol/mouse, 4 h",2.54 ± 0.76
same,Tumor/Bone marrow,"5.0 nmol/mouse, 4 h",8.24 ± 2.53
same,Tumor/Kidneys,"5.0 nmol/mouse, 4 h",2.67 ± 1.00
same,Blood uptake,"5.0 nmol/mouse, 24 h",6.12 ± 4.78 % ID/g
same,Bone marrow uptake,"5.0 nmol/mouse, 24 h",0.46 ± 0.34 % ID/g
same,Heart uptake,"5.0 nmol/mouse, 24 h",0.72 ± 0.68 % ID/g
same,Intestine uptake,"5.0 nmol/mouse, 24 h",1.30 ± 0.72 % ID/g
same,Kidneys uptake,"5.0 nmol/mouse, 24 h",1.53 ± 1.17 % ID/g
same,Liver uptake,"5.0 nmol/mouse, 24 h",2.99 ± 1.46 % ID/g
same,Lungs uptake,"5.0 nmol/mouse, 24 h",2.07 ± 1.38 % ID/g
same,Spleen uptake,"5.0 nmol/mouse, 24 h",1.13 ± 0.456 % ID/g
same,Stomach uptake,"5.0 nmol/mouse, 24 h",1.17 ± 1.13 % ID/g
same,Tumor uptake,"5.0 nmol/mouse, 24 h",6.13 ± 2.89 % ID/g
same,Tumor/Blood,"5.0 nmol/mouse, 24 h",2.16 ± 1.97
same,Tumor/Bone marrow,"5.0 nmol/mouse, 24 h",21.03 ± 11.54
same,Tumor/Kidneys,"5.0 nmol/mouse, 24 h",5.82 ± 2.82
same,Blood uptake,"5.0 nmol/mouse, 72 h",1.1775 ± 0.38 % ID/g
same,Bone marrow uptake,"5.0 nmol/mouse, 72 h",0.44 ± 0.31 % ID/g
same,Heart uptake,"5.0 nmol/mouse, 72 h",0.22 ± 0.08 % ID/g
same,Intestine uptake,"5.0 nmol/mouse, 72 h",0.62 ± 0.26 % ID/g
same,Kidneys uptake,"5.0 nmol/mouse, 72 h",1.48 ± 0.57 % ID/g
same,Liver uptake,"5.0 nmol/mouse, 72 h",2.42 ± 0.63 % ID/g
same,Lungs uptake,"5.0 nmol/mouse, 72 h",0.67 ± 0.50 % ID/g
same,Spleen uptake,"5.0 nmol/mouse, 72 h",1.54 ± 0.74 % ID/g
same,Stomach uptake,"5.0 nmol/mouse, 72 h",0.45 ± 0.17 % ID/g
same,Tumor uptake,"5.0 nmol/mouse, 72 h",6.36 ± 0.96 % ID/g
same,Tumor/Blood,"5.0 nmol/mouse, 72 h",6.31 ± 2.73
same,Tumor/Bone marrow,"5.0 nmol/mouse, 72 h",20.78 ± 9.88
same,Tumor/Kidneys,"5.0 nmol/mouse, 72 h",5.02 ± 1.79
same,Blood uptake,"5.0 nmol/mouse, 120 h",0.73 ± 0.25 % ID/g
same,Bone marrow uptake,"5.0 nmol/mouse, 120 h",0.66 ± 0.74 % ID/g
same,Heart uptake,"5.0 nmol/mouse, 120 h",0.67 ± 0.40 % ID/g
same,Intestine uptake,"5.0 nmol/mouse, 120 h",0.69 ± 0.20 % ID/g
same,Kidneys uptake,"5.0 nmol/mouse, 120 h",0.40 ± 0.09 % ID/g
same,Liver uptake,"5.0 nmol/mouse, 120 h",1.74 ± 0.68 % ID/g
same,Lungs uptake,"5.0 nmol/mouse, 120 h",0.36 ± 0.17 % ID/g
same,Spleen uptake,"5.0 nmol/mouse, 120 h",0.84 ± 0.78 % ID/g
same,Stomach uptake,"5.0 nmol/mouse, 120 h",0.45 ± 0.26 % ID/g
same,Tumor uptake,"5.0 nmol/mouse, 120 h",3.71 ± 1.59 % ID/g
same,Tumor/Blood,"5.0 nmol/mouse, 120 h",4.39 ± 1.39
same,Tumor/Bone marrow,"5.0 nmol/mouse, 120 h",11.04 ± 9.17
same,Tumor/Kidneys,"5.0 nmol/mouse, 120 h",7.54 ± 3.45
same,Blood uptake,"5.0 nmol/mouse, 168 h",0.34 ± 0.27 % ID/g
same,Bone marrow uptake,"5.0 nmol/mouse, 168 h",0.63 ± 0.75 % ID/g
same,Heart uptake,"5.0 nmol/mouse, 168 h",0.48 ± 0.31 % ID/g
same,Intestine uptake,"5.0 nmol/mouse, 168 h",0.26 ± 0.15 % ID/g
same,Kidneys uptake,"5.0 nmol/mouse, 168 h",0.302 ± 0.39 % ID/g
same,Liver uptake,"5.0 nmol/mouse, 168 h",1.42 ± 1.00 % ID/g
same,Lungs uptake,"5.0 nmol/mouse, 168 h",0.92 ± 0.26 % ID/g
same,Spleen uptake,"5.0 nmol/mouse, 168 h",0.74 ± 0.29 % ID/g
same,Stomach uptake,"5.0 nmol/mouse, 168 h",0.25 ± 0.13 % ID/g
same,Tumor uptake,"5.0 nmol/mouse, 168 h",1.94 ± 0.27 % ID/g
same,Tumor/Blood,"5.0 nmol/mouse, 168 h",7.08 ± 4.78
same,Tumor/Bone marrow,"5.0 nmol/mouse, 168 h",3.07 ± 1.35
same,Tumor/Kidneys,"5.0 nmol/mouse, 168 h",5.95 ± 2.92
